Experiment [1] addresses T1, RAC-alpha serine/threonine-protein kinase (Homo sapiens, UniProt P31749).
In experiment [2] the target is T1, RAC-alpha serine/threonine-protein kinase. This is another data set of the same source.

Amino acid sequences for entries named in this document (tags omitted). A change or cut given only in a name is not applied to a line headed by its entry.
UniProt P31749: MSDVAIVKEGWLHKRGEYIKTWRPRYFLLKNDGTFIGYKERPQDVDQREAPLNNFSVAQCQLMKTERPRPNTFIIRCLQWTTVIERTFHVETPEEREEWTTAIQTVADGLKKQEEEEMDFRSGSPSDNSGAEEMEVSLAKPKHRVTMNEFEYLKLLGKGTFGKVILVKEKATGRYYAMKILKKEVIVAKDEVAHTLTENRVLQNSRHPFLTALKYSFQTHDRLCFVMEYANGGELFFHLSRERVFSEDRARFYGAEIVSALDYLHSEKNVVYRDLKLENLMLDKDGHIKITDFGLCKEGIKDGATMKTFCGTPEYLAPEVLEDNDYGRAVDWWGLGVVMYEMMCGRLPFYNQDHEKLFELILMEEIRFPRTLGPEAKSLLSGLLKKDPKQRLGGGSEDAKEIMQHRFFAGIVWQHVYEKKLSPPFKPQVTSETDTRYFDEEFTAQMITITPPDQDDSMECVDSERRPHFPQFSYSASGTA

SMILES strings stand for the structures.

This note sets out measurements from ChEMBL document CHEMBL2177010, “Discovery and preclinical pharmacology of a selective ATP-competitive Akt inhibitor (GDC-0068) for the treatment of human tumors” (J Med Chem, 2012).

For `C[C@@H]1C[C@@H](O)c2ncnc(N3CCN(C(=O)[C@H](CNCC4CC4)c4ccc(Cl)cc4)CC3)c21`, the IC50 in experiment [1] is 5 nM; in experiment [2], 179 nM.
Take `C[C@@H]1C[C@@H](O)c2ncnc(N3CCN(C(=O)[C@H](CNC(C)(C)C)c4ccc(C(F)(F)F)c(F)c4)CC3)c21`: the IC50 amounted to 3 nM in experiment [1] and 92 nM in experiment [2].
On to `CC(C)NC[C@@H](C(=O)N1CCN(c2ncnc3c2[C@H](C)C[C@H]3F)CC1)c1ccc(Cl)cc1`, for which the IC50 came to 4 nM in experiment [1] and 152 nM in experiment [2].
Regarding `C[C@@H]1C[C@@H](O)c2ncnc(N3CCN(C(=O)[C@H](CNCC4CC4)c4ccc(C(F)(F)F)c(F)c4)CC3)c21`, the results for the IC50 in experiment [1] and in experiment [2] were 3 nM and 65 nM, respectively.
In the same order, the values of `C[C@@H]1C[C@@H](O)c2ncnc(N3CCN(C(=O)[C@H](CNC(C)(C)CO)c4ccc(C(F)(F)F)c(F)c4)CC3)c21` are 6 nM and 47 nM.
As to `CC(C)NC[C@@H](C(=O)N1CCN(c2ncnc3c2[C@H](C)C[C@@H]3F)CC1)c1ccc(Cl)cc1`, the IC50 in experiment [1] amounted to 12 nM; in experiment [2], 901 nM.
On to `C[C@@H]1C[C@@H](O)c2ncnc(N3CCN(C(=O)[C@H](CNC4CCOCC4)c4ccc(Cl)cc4)CC3)c21`, for which the IC50 in experiment [1] amounted to 5 nM; in experiment [2], 184 nM.
